The text below walks through data of patent publication US7973012B2, “C-phenyl glycitol compound” (Taisho Pharmaceutical Co., Ltd, priority 2006, dated 2011).

Sequences of proteins named here, by UniProt entry; tags and fusion partners are left off.
UniProt P13866, whole entry: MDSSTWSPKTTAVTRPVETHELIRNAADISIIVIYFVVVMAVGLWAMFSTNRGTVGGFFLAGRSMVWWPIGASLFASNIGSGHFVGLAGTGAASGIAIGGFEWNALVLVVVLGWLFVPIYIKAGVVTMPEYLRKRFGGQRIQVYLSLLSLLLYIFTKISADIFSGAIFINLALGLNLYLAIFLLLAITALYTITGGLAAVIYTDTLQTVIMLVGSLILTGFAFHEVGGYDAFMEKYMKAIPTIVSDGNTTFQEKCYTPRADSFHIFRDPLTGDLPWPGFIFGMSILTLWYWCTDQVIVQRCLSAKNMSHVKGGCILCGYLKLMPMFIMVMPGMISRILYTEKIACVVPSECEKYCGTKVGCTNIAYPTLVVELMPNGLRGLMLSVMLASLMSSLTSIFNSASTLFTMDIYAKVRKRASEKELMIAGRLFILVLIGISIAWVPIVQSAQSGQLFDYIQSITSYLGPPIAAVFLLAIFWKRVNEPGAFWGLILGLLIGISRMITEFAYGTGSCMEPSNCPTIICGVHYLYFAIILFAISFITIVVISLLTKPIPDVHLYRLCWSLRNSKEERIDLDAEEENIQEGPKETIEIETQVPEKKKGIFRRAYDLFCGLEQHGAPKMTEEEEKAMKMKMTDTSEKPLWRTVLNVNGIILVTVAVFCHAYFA
UniProt P31639, whole entry: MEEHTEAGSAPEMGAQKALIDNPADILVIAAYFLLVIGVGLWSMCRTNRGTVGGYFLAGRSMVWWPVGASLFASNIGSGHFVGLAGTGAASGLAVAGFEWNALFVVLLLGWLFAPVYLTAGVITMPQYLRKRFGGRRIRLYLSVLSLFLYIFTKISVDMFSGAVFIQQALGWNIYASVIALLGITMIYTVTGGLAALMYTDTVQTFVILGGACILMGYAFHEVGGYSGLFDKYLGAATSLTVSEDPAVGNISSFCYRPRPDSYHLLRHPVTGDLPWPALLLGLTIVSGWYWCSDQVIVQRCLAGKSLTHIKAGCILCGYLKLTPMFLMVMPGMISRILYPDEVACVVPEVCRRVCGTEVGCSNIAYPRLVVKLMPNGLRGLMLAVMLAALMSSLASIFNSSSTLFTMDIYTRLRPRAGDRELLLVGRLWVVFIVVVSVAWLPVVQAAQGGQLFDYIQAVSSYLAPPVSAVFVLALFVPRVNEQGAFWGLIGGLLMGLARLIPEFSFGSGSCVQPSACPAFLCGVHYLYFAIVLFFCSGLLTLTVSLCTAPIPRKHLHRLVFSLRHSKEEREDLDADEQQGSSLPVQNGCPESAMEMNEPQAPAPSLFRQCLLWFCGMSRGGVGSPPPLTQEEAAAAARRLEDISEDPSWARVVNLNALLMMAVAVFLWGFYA

One test addresses human SGLT1 (Homo sapiens, UniProt P13866). The experiment in a line: Inhibition test of sodium-dependent sugar uptake in CHO-k1 cells stably expressing human SGLT1. Particulars: read-out: SGLT1 IC50, [14C]methyl α-D-glucopyranoside uptake, 37° C., 30 minutes. Here is the method: (§1) An SGLT1 sequence (NM_000343) was reverse-transcripted from human small intestinal mRNA, then amplified, and then introduced into pCMV-tag5A from Stratagene Corporation. An SGLT2 sequence (NM_003041) was prepared from human nephric mRNA as with the above method, and then introduced into pcDNA3.1+hygro from Invitrogen Corporation. Each cloned sequence was confirmed to be identical with the reported sequence.
(§2) The human SGLT1 and human SGLT2 expression vectors were transfected into CHO-k1 cells by using Lipofectamine 2000 from Invitrogen Corporation. The SGLT expression cells were incubated in the presence of Geneticin (SGLT1) or Hygromycin B (SGLT2) at a 500 μg/mL concentration to select resistant strains, and specific activity of sugar uptake was obtained as an indicator by the following system.
(§3) Cells stably expressing human SGLT1 and human SGLT2 were used for the inhibition test of sodium-dependent glucose uptake.
(§4) The cells were incubated in a pretreatment buffer A (200 μL for SGLT1, and 2 mL for SGLT2) for 20 minutes. […] After a liquid scintilater was added thereto and mixed sufficiently, radioactivity was measured with microBETA (SGLT1) or a liquid scintillation counter from Beckman Coulter, Inc (SGLT2). […]

In a further test the target is human SGLT2 (Homo sapiens, UniProt P31639). Put plainly: Inhibition test of sodium-dependent sugar uptake in CHO-k1 cells stably expressing human SGLT2. Particulars: read-out: SGLT2 IC50, [14C]methyl α-D-glucopyranoside uptake, 37° C., an hour. The procedure:
as §1, §2, §3, §4

The structures appear in SMILES notation.

With `Cc1cc(O)c([C@@H]2O[C@H](CO)[C@@H](O)[C@H](O)[C@H]2O)cc1Cc1ccc(CNC(=O)NC(CO)(CO)CO)cc1`, the results for the IC50 on human SGLT1 and on human SGLT2 were 382 nM and 164 nM, respectively.

A word on the IC50: it is the concentration needed to halve the response being measured.
